Where two headings read alike, the source gives them in different places.
Experiments:
Format in all cases: cell-based
hP2X7R WT = hP2X7R WT (Homo sapiens, UniProt Q99572, R270H/Y155H); test: Ethidium bromide uptake assay, HEK293 transfected with hP2X7R WT
hP2X7R V76A = hP2X7R V76A (Homo sapiens, UniProt Q99572, R270H/V76A/Y155H); test: Ethidium bromide uptake assay, HEK293 transfected with hP2X7R SNP V76A; settings: agonist 100 μM BzATP
hP2X7R H155T = hP2X7R H155T (Homo sapiens, UniProt Q99572, R270H, form not given); test: Ethidium bromide uptake assay, HEK293 transfected with hP2X7R SNP H155T
hP2X7R H270R = hP2X7R H270R (Homo sapiens, UniProt Q99572, Y155H); test: Ethidium bromide uptake assay, HEK293 transfected with hP2X7R SNP H270R
hP2X7R A348T = hP2X7R A348T (Homo sapiens, UniProt Q99572, A348T/R270H/Y155H); test: Ethidium bromide uptake assay, HEK293 transfected with hP2X7R SNP A348T
hP2X7R T357S = hP2X7R T357S (Homo sapiens, UniProt Q99572, R270H/T357S/Y155H); test: Ethidium bromide uptake assay, HEK293 transfected with hP2X7R SNP T357S; settings: agonist 100 μM BzATP
hP2X7R Q460R = hP2X7R Q460R (Homo sapiens, UniProt Q99572, A348T/Q460R, form not given); test: Ethidium bromide uptake assay, HEK293 transfected with hP2X7R SNP Q460R
hP2X7R = hP2X7R (Homo sapiens, UniProt Q99572); test: Yo-Pro uptake assay for P2X7R pore formation in THP-1 cells; parameters: Following an overnight incubation (16 h) required for THP-1 differentiation; endogenous in cells; host or cells: THP-1 (ATCC), differentiated with LPS and IFN-gamma
[1] = 100 μM BzATP, agonist 100 μM BzATP

The chains behind the UniProt entries cited, without tags or fusion partners.
UniProt Q99572, whole entry Y155H/R270H: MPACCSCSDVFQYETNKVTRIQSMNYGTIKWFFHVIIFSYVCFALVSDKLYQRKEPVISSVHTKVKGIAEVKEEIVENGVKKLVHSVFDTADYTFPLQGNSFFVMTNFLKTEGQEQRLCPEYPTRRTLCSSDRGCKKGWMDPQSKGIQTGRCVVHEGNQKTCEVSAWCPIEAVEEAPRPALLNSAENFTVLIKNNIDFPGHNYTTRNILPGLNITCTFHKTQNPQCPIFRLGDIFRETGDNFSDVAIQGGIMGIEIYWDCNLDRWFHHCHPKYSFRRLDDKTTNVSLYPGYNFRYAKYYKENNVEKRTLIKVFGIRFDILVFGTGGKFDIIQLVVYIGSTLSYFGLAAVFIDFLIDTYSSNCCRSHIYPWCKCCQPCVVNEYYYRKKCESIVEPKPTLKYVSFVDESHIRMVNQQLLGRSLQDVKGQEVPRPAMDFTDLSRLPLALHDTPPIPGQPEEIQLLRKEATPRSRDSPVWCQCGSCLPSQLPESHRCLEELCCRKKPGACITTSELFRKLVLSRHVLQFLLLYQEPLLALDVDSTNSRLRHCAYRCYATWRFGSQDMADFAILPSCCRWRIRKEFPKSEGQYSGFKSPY
UniProt Q99572, whole entry V76A/Y155H/R270H: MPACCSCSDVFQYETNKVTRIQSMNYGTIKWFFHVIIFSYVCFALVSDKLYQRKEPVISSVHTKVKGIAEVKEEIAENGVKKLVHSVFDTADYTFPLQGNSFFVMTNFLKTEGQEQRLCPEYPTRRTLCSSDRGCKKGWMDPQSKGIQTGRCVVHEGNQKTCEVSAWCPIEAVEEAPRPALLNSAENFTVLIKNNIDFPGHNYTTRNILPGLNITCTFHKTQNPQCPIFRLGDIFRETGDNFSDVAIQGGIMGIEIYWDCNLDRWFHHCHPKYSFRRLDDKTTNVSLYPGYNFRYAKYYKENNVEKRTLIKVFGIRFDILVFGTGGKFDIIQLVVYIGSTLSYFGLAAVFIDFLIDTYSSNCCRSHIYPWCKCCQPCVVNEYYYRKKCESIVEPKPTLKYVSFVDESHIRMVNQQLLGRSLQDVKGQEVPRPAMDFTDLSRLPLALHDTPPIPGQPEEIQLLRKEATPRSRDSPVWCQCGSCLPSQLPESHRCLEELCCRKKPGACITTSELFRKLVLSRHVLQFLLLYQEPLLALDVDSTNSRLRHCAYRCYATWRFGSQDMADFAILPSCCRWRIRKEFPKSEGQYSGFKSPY
UniProt Q99572, whole entry R270H: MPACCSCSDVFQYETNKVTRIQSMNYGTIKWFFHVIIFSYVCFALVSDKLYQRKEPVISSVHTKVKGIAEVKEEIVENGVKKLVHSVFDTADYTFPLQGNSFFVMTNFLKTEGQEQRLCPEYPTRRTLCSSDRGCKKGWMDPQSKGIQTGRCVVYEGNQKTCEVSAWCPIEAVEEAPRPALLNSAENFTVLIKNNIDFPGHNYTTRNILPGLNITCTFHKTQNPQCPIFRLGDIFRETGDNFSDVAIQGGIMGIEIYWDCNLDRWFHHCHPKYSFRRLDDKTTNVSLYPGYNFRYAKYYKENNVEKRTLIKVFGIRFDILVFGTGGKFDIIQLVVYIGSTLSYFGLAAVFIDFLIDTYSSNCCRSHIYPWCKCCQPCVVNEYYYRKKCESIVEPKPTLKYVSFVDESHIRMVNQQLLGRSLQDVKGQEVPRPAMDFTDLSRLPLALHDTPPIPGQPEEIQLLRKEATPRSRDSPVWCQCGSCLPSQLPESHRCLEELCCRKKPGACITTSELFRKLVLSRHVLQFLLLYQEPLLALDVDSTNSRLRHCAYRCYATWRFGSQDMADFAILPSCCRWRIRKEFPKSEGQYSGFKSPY
UniProt Q99572, whole entry Y155H: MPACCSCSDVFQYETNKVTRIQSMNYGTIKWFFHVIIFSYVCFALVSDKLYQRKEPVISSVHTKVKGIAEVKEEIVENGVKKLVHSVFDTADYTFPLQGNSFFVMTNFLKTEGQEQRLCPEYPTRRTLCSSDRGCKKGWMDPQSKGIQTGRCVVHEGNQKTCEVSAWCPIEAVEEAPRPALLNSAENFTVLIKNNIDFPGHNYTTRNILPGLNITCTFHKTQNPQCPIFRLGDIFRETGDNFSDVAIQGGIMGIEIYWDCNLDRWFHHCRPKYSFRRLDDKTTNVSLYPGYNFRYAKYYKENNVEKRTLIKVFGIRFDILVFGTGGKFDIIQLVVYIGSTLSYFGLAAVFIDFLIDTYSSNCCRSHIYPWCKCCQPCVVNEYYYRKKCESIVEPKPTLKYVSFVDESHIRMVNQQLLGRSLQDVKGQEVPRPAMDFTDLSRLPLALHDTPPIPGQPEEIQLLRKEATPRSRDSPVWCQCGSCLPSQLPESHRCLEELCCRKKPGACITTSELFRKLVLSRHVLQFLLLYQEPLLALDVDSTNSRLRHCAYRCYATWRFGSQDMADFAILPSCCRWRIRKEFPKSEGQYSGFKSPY
UniProt Q99572, whole entry Y155H/R270H/A348T: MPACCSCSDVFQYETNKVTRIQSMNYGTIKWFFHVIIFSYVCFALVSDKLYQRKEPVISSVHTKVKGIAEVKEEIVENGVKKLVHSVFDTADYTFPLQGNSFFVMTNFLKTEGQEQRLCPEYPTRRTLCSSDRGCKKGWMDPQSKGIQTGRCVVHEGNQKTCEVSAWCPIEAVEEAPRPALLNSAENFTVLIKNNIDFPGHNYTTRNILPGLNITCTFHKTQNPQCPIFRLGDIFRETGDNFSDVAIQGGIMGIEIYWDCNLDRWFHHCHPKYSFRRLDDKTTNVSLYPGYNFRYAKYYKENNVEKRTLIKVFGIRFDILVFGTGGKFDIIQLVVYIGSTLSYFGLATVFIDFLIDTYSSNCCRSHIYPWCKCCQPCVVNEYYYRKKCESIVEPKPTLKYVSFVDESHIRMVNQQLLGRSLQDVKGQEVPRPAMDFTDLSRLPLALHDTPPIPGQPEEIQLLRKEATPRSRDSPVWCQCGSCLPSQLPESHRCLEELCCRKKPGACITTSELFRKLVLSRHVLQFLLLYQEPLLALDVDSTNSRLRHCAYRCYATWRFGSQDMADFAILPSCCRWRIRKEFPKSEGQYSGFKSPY
UniProt Q99572, whole entry Y155H/R270H/T357S: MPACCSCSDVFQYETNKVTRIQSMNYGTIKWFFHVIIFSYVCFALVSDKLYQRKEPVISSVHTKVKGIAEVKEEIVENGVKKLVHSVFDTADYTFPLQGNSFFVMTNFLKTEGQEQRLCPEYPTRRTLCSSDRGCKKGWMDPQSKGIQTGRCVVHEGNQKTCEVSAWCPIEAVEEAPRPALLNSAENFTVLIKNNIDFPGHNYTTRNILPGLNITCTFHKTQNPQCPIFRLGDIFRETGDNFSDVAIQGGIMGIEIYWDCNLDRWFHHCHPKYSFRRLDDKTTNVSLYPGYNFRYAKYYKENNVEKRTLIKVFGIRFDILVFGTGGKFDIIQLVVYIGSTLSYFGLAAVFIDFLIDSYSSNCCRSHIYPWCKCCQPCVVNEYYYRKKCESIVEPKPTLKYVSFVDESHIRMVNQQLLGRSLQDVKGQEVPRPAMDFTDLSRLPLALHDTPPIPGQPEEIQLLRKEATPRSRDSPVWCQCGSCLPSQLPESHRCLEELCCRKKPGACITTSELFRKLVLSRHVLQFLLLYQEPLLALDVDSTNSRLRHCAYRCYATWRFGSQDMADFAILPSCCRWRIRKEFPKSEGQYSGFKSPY
UniProt Q99572, whole entry Y155H/R270H/A348T/Q460R: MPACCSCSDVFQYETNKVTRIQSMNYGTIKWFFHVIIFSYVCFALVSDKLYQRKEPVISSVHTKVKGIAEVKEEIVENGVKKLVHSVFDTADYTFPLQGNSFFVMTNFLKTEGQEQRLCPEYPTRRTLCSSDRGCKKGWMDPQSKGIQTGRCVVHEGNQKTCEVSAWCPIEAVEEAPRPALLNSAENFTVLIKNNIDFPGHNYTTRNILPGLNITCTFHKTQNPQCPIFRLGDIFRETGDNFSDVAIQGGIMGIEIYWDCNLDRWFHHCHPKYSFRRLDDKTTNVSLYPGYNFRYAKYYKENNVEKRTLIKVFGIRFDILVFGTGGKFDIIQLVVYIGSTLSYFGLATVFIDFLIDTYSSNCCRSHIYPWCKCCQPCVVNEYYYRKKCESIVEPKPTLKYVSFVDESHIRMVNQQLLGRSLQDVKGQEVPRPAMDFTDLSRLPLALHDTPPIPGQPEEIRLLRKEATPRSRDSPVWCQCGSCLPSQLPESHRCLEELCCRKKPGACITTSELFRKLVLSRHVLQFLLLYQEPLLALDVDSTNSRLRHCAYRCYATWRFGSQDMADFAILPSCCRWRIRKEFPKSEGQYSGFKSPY

COc1ccc(Cl)c(C(=O)NCC23CC4(F)CC(F)(CC(F)(C4)C2)C3)c1 [Compound 1, 2-Chloro-N-((3,5,7-trifluoroadamantan-1-yl)methyl)-5-methoxybenzamide]
IC50 (hP2X7R WT; [1]): 33 ± 6 nM | IC50 (hP2X7R WT; 1 mM ATP, agonist 1 mM ATP): 49 ± 24 nM | IC50 (hP2X7R V76A): 24 ± 9 nM | IC50 (hP2X7R H155T; read-out: IC50 H155T, 100 μM BzATP, agonist 100 μM BzATP): 20 ± 5 nM | IC50 (hP2X7R H155T; read-out: IC50 H155T, 1 mM ATP, agonist 1 mM ATP): 49 ± 21 nM | IC50 (hP2X7R H270R; [1]): 52 ± 20 nM | IC50 (hP2X7R H270R; 1 mM ATP, agonist 1 mM ATP): 34 ± 17 nM | IC50 (hP2X7R A348T; [1]): 30 ± 10 nM | IC50 (hP2X7R A348T; 1 mM ATP, agonist 1 mM ATP): 48 ± 6 nM | IC50 (hP2X7R T357S): 35 ± 12 nM | IC50 (hP2X7R Q460R; read-out: IC50 Q460R, 100 μM BzATP, Q460R (plasmid contains 348T and 460R), agonist 100 μM BzATP): 62 nM | IC50 (hP2X7R Q460R; read-out: IC50 Q460R, 1 mM ATP, Q460R (plasmid contains 348T and 460R), agonist 1 mM ATP): 55 ± 4 nM | IC50 (hP2X7R; THP-1 cells, BzATP 100 μM, YO-PRO-1, mean ± standard deviation, n >4, read-out: Dye uptake IC50 hP2X7R): 33.9 ± 11 nM | LLE (hP2X7R; pIC50 from dye uptake and LogD from HPLC): 4.64

— patent publication US12668568B2, “Adamantanyl-substituted benzamide compounds and their use as P2X7 receptor antagonists” (The University of Sydney, priority 2018, dated 2026)
